ChEMBL document CHEMBL4477185, “Anacardic Acids from Knema hookeriana as Modulators of Bcl-xL/Bak and Mcl-1/Bid Interactions” (J Nat Prod, 2016)

By UniProt entry, the sequences of proteins in these tests, tags left out.
UniProt Q07820, whole entry: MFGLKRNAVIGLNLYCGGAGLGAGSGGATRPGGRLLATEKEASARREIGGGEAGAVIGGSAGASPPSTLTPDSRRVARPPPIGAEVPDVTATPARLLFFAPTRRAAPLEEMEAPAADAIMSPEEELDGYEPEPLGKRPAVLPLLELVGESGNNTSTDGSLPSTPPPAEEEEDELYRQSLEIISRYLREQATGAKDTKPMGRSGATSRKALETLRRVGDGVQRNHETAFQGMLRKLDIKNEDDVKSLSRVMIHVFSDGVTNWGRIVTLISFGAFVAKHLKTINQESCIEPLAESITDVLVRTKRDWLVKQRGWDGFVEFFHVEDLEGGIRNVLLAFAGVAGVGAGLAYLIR

Biological target: Induced myeloid leukemia cell differentiation protein Mcl-1/BH3-interacting domain death agonist (Homo sapiens, UniProt Q07820)
Test: Inhibition of His-tagged Mcl-1/5-carboxyfluorescein-Bid (unknown origin) after 1 hr by fluorescence polarization assay
Type: protein assay
Summary of the method: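 Fluorescence polarization competition: a small molecule competes with a fluorescent-tagged BH3 peptide (Bak for Bcl-xL, Bid for Mcl-1) for binding to the anti-apoptotic protein. Run in triplicate.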

CN(C)CC[C@H](CSc1ccccc1)Nc1ccc(S(=O)(=O)NC(=O)c2ccc(N3CCN(Cc4ccccc4-c4ccc(Cl)cc4)CC3)cc2)cc1[N+](=O)[O-] [ABT 737]
IC50: > 33 µM
